Sequences of proteins named here, by UniProt entry; tags and fusion partners are left off.
UniProt P0A6F5, whole entry, looked up: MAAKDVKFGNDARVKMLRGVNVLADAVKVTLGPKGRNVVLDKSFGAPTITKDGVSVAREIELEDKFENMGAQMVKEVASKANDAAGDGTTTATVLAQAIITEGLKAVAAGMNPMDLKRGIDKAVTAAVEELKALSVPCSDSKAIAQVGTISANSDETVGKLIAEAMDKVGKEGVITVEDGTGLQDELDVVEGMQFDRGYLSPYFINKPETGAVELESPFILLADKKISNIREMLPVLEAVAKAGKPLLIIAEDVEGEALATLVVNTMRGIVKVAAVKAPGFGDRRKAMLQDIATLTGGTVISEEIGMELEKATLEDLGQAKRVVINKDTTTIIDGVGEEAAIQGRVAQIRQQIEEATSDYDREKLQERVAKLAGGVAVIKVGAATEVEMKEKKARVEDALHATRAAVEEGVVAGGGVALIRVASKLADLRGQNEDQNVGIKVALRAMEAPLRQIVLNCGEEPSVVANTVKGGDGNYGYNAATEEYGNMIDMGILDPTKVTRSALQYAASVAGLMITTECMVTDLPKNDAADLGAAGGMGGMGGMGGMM

In ChEMBL document CHEMBL4387722:

Tests used:
[1] = biological target: T1, E. coli GroEL/ES (Escherichia coli, UniProt P0A6F5); experiment: Inhibition of Escherichia coli GroEL expressed in Escherichia coli DH5alpha/Escherichia coli GroES expressed in Escherichia coli BL21 (DE3) assessed as reduction in GroEL/GroES-mediated denatured rhodanese refolding by measuring rhodanese enzyme activity after 45 mins by Fe(SCN)3 dye based spectrometric analysis
[2] = biological target: T1, E. coli GroEL/ES; experiment: Inhibition of Escherichia coli GroEL expressed in Escherichia coliDH5alpha/Escherichia coli GroES expressed in Escherichia coli BL21 (DE3) assessed as reduction in GroEL/GroES-mediated denatured pig heart mitochondrial MDH refolding by measuring MDH enzyme activity using sodium mesoxalate as substrate after 20 to 40 mins by spectrometric analysis

COc1ccc(S(=O)(=O)Nc2ccc3oc(-c4ccccc4)nc3c2)cc1
IC50 [1]: 175 µM | IC50 [2]: 95 µM

CS(=O)(=O)Nc1ccc2oc(-c3ccccc3)nc2c1
IC50 [1]: 193 µM | IC50 [2]: > 100 µM

O=S(=O)(Nc1ccc2oc(-c3ccccc3)nc2c1)c1ccccc1O
IC50 [1]: 194 µM | IC50 [2]: 70 µM

Cc1cccc(S(=O)(=O)Nc2ccc3oc(-c4ccccc4)nc3c2)c1
IC50 [1]: 200 µM | IC50 [2]: > 100 µM

O=S(=O)(Nc1ccc2oc(-c3ccccc3)nc2c1)c1cccc(F)c1
IC50 [1]: 146 µM | IC50 [2]: > 100 µM

COc1ccc(S(=O)(=O)Nc2ccc(-c3nc4ccccc4o3)cc2)cc1
IC50 [1]: 140 µM | IC50 [2]: 63 µM

COc1cccc(S(=O)(=O)Nc2ccc(-c3nc4ccccc4o3)cc2)c1
IC50 [1]: 174 µM | IC50 [2]: 76 µM

O=S(=O)(Nc1ccc(-c2nc3ccccc3o2)cc1)c1cccc(O)c1
IC50 [1]: 132 µM | IC50 [2]: 72 µM

O=S(=O)(Nc1ccc2oc(-c3ccccc3)nc2c1)c1ccc(F)c(C(F)(F)F)c1
IC50 [1]: 122 µM | IC50 [2]: 48 µM

COc1ccccc1S(=O)(=O)Nc1ccc(-c2nc3ccccc3o2)cc1
IC50 [1]: 113 µM | IC50 [2]: 90 µM

O=S(=O)(Nc1ccc2oc(-c3ccccc3)nc2c1)c1ccc(O)cc1
IC50 [1]: 111 µM | IC50 [2]: 64 µM

O=S(=O)(Nc1ccc(-c2nc3ccccc3o2)cc1)c1ccc(O)cc1
IC50 [1]: 138 µM | IC50 [2]: 54 µM

O=S(=O)(Nc1ccc2oc(-c3ccccc3)nc2c1)c1cccc(Cl)c1
IC50 [1]: 124 µM | IC50 [2]: 78 µM
